Measurements: ChEMBL document CHEMBL1926574, “Synthesis and biological evaluation of a new series of 1,2,4-triazolo[1,5-a]-1,3,5-triazines as human A(2A) adenosine receptor antagonists with improved water solubility” (J Med Chem, 2011)

Legend:
Homo sapiens = species on record: Homo sapiens; test: Selectivity ratio of Ki for human adenosine A1 receptor to Ki for human adenosine A2A receptor
[1] = target: T1, Adenosine receptor A2b (Homo sapiens) (UniProt P29275); test: Antagonist activity at human adenosine A2B receptor; assay type: functional
T1 sequence (whole entry): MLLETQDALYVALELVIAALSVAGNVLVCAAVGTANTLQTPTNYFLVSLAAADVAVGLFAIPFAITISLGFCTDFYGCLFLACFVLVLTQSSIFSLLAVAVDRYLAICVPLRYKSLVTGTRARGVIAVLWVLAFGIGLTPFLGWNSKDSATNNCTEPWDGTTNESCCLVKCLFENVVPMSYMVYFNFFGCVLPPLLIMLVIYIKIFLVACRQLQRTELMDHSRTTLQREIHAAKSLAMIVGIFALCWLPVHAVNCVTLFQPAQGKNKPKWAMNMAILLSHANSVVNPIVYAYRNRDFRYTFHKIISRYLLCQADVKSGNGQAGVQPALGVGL

Row | SMILES | Ratio Ki (Homo sapiens) | Antagonist potency (inhibitory concentration) [1]
1 | NCC1CCC(CNc2nc(N)n3nc(-c4ccco4)nc3n2)CC1.O=C(O)C(F)(F)F (stereo not drawn) | 79 | 
2 | NCCOCCOCCNc1nc(N)n2nc(-c3ccco3)nc2n1.O=C(O)C(F)(F)F | 67 | 
3 | Nc1nc(NCCc2ccc(O)cc2)nc2nc(-c3ccco3)nn12 |  | 28 nM
